The text below walks through data of PubChem BioAssay AID1479 (National Center for Advancing Translational Sciences (NCATS), 2009).

The nature of the experiment: Total Fluorescence Counterscreen for Inhibitors of the Interaction of Thyroid Hormone Receptor and Steroid Receptor Coregulator 2. The following applies: TRb/SRC2 Texas Red total fluorescence interference.
[1] abbreviates: at 106 µM (top of the series) unless noted.

The structures appear in SMILES notation. Only a part is listed here, and it is no random draw. Some salts and complexes are drawn in separate pieces, as the source files them; their charges need not balance. The source made the active and inactive calls. Calls come from the whole dose curve; as a rule, active = well fitted curve in either direction with a large enough effect; inconclusive = small, poorly fitted or top-dose-only effect; inactive = flat fitted curve, though single readings scatter.
% is set by controls: 0 for no effect and ±100 for the full control effect.

As to `CN(C)c1cccc(C(=O)NCC2(N3CCCCC3)CCCCC2)c1`, the fluorescence change, negative = quenching under setting [1] is inactive: -1.51%. Same read-out and setting: as for `COc1ccc(CN(CCCl)CCCl)cc1Cl`, the figure is inactive: 2.88% [at 53 µM]; as for `CC(C)c1ccc(NC2CCN(C(=O)OC(C)(C)C)CC2)cc1`, inactive: -8.62%.

Turning to `CCOP(=O)(Cl)Cl`, the fluorescence change, negative = quenching was inactive: -1.95% (at 106 µM (top of the series)) and inactive: -1.42% (at 201 µM (top of the series)). Regarding `COc1ccc2c(c1O)-c1c(O)c(OC)cc3c1[C@H](C2)[N+](C)(C)CC3.O=[N+]([O-])c1cc([N+](=O)[O-])c([O-])c([N+](=O)[O-])c1[O-]`, under setting [1], the fluorescence change, negative = quenching is inactive: -2.55%. Still for that read-out and setting: the same measure for `O=C(OC1CN2CCC1CC2)c1ccc([N+](=O)[O-])cc1` (centres undefined): inactive: -5.53%; for `CCCCOc1ccccc1C(=O)NCC1(N2CCOCC2)CCCCC1`: inactive: -5.26%; for `O=C(NCC1(N2CCCCC2)CCCCC1)c1cccc([N+](=O)[O-])c1`: inactive: 0.118%.

Regarding `CCOc1ccc(C(=O)NCC2(N3CCOCC3)CCCCC2)cc1`, the fluorescence change, negative = quenching under setting [1] is inactive: 0.489%. Same read-out and setting: the same measure for `N#CC1(Nc2ccccc2)CCN(CCc2ccccc2)CC1`: inactive: -0.798%; for `CCCOc1cccc(C(=O)NCC2(N3CCOCC3)CCCCC2)c1`: inactive: -32.4%; for `O=[N+]([O-])c1cc([N+](=O)[O-])c(NCC2CCS(=O)(=O)C2)c([N+](=O)[O-])c1` (centres undefined): inactive: -8.94%.

In the case of `CN1CCN(CCOC(=O)C(O)(c2ccccc2)c2ccccc2)CC1`, under setting [1], the fluorescence change, negative = quenching is inactive: -0.752%. Same read-out and setting: the same measure for `COc1ccc(NC2CCN(C(=O)OC(C)(C)C)CC2)cc1`: inactive: 0.0405%; for `O=C(NCC1(N2CCOCC2)CCCCC1)c1cc(=O)[nH]c2ccccc12`: inactive: 0.577%.

`CCOc1ccc(C)cc1CN(CCCl)CCCl`: under setting [1], the fluorescence change, negative = quenching is inactive: 0.381%. For the molecule `COc1ccc(NC2CCN(CCc3ccccc3)CC2)c(OC)c1`, the fluorescence change, negative = quenching under setting [1] is inactive: 1.5%. With `O=[N+]([O-])c1ccccc1[N+](=O)[O-]`, the fluorescence change, negative = quenching under setting [1] was inactive: -1.72% [at 201 µM]. Still for that read-out and setting: as for `COc1ccccc1C(=O)NCC1(N2CCOCC2)CCCCC1`, the figure is inactive: 0.923%; as for `Cc1ccc(OCC(C)C)c(CN(CCCl)CCCl)c1`, inactive: -1.15%. `COc1ccc(C(=O)NCC2(N3CCCCC3)CCCCC2)c(OC)c1OC`: the fluorescence change, negative = quenching under setting [1] is inactive: -7.43%. On to `O=C(NCC1(N2CCOCC2)CCCCC1)c1cc2ccccc2o1`, for which, under setting [1], the fluorescence change, negative = quenching was inactive: -0.108%. The same measure, in the same setting: as for `CCOC(=O)N1CCC(Nc2ccc(OC)cc2)CC1`, the figure is inactive: 0.36%. On the same count and under the same terms, as for `N#CC1(Nc2ccccc2)CCN(Cc2ccccc2)CC1`, the figure is inactive: -2.2%; as for `O=C(OC1CN2CCC1CC2)C1c2ccccc2Oc2ccccc21` (centres undefined), inactive: -7.21%; as for `CCOc1ncccc1C(=O)NCC1(N2CCOCC2)CCCCC1`, inactive: 0.533%.

`CC(C)(C)OC(=O)N1CCC(Nc2ccccc2)CC1`: the fluorescence change, negative = quenching under setting [1] is inactive: -0.383%. The same measure, in the same setting: the same measure for `CCC(CO)(C(=O)OC1CN2CCC1CC2)c1ccccc1` (centres undefined): inactive: -1.13%; for `COc1cc(C(=O)NCC2(N3CCOCC3)CCCCC2)cc(OC)c1OC`: inactive: -1.28%; for `COc1cc(OC)cc(C(=O)NCC2(N3CCOCC3)CCCCC2)c1`: inactive: 3.36%.

For the molecule `CCCOc1ccc(C)cc1CN(CCCl)CCCl`, the fluorescence change, negative = quenching under setting [1] was inactive: 0.412%. The same measure, in the same setting: as for `CN(C)C1(CNC(=O)c2ccc(C(C)(C)C)cc2)CCCCC1`, the figure is inactive: -0.539%. The same measure, in the same setting: as for `Fc1ccccc1NC1CCN(Cc2ccccc2)CC1`, the figure is inactive: -2.44%; as for `CCN1CCC(Nc2cccc(F)c2)CC1`, inactive: -4.46%; as for `CN(C)c1ccc(C(=O)NCC2(N3CCCCC3)CCCCC2)cc1`, inactive: -0.297%. The same measure, in the same setting: the same measure for `CC(C)(C)c1ccc(C(=O)NCC2(N3CCOCC3)CCCCC2)cc1`: inactive: 3.77%; for `Cc1ccccc1C(=O)NCC1(N(C)C)CCCCC1`: inactive: -9.91%. On to `O=C(NCC1(N2CCOCC2)CCCCC1)c1ccc([N+](=O)[O-])cc1`, for which, under setting [1], the fluorescence change, negative = quenching was inactive: -10.4%. `N#Cc1ccc(C(=O)NCC2(N3CCCCC3)CCCCC2)cc1`: the fluorescence change, negative = quenching under setting [1] was inactive: -0.151%.

On to `O=C(NCC1(N2CCOCC2)CCCCC1)c1ccccc1[N+](=O)[O-]`, for which the fluorescence change, negative = quenching under setting [1] is inactive: 3.06%. The same measure, in the same setting: as for `CCOC(=O)C(CC)C1=NC(C)(C)Cc2ccccc21.O=[N+]([O-])c1cc([N+](=O)[O-])c(O)c([N+](=O)[O-])c1` (centres undefined), the figure is inactive: 0.0345%. For `O=C(NCC1(N2CCOCC2)CCCCC1)c1ccccc1`, under setting [1], the fluorescence change, negative = quenching was inactive: -2.86%. Consider `c1ccc(CN2CCC(Nc3ccccc3)CC2)cc1`, for which the fluorescence change, negative = quenching under setting [1] was inactive: -4.38%. `ClCCOP(OCCCl)OCCCl`: the fluorescence change, negative = quenching under setting [1] is inactive: -0.728%. The same measure, in the same setting: as for `COc1ccc(C(=O)NCC2(N3CCOCC3)CCCCC2)cc1OC`, the figure is inactive: -0.0519%; as for `N/C(=N\O)c1c(N)no[n+]1[O-]`, inactive: -0.549%; as for `O=C(O)c1cccc(Nc2c([N+](=O)[O-])cc([N+](=O)[O-])cc2[N+](=O)[O-])c1`, inactive: -2.96%. In the case of `O=C(OC1CN2CCC1CC2)C1c2ccccc2C=Cc2ccccc21` (centres undefined), the fluorescence change, negative = quenching under setting [1] was inactive: 0.0786%.
